Assay results published in patent US20050049220A1, “Dosing regimen for Flaviviridae therapy” (priority 2003, published 2005).

Tests used:
HCV replicon RNA [1] = assay: 7-day dynamics of HCV RNA levels; assay type: cell-based, hepatitis C virus (HCV)
HCV replicon RNA [2] = assay: Replicon RNA copy number per cell; assay type: cell-based, hepatitis C virus (HCV); settings: 100 IU/ml; at day 3
Protocol: FIG. 4 is a graphical depiction of the log10 changes for replicon RNA levels per cell. The plots were obtained from data collected in FIGS. 2 and 3, in which log10 changes for cell count and replicon RNA levels were subtracted from each other. A. Control antiviral compounds. ●: no drug control; ▾: IFN-α-2a at 100 IU/ml; ▪: ribavirin at 100 μM. B. Selection of the most important anti-metabolites. ●: no drug control; ▾: dFdC at 50 nM; ▪: CP-C at 25 μM; ♦: CPE-C at 2.5 μM; ▴: PALA at 10 μM; ●: PZF at 5 μM.
To express the specificity of the antiviral action of the control compounds versus the anti-metabolites, the log10 change in replicon RNA copy number per cell and per day was calculated from the above experiments. IFN-α-2a reduced the copy numbers per cell by approximately 1.6 log10 at day 3, after which a new steady state level was achieved on days 4-7 (FIG. 4A).

HCV replicon [3] = settings: after 96 hr of incubation; as previously reported by Stuyver et al.; cited from earlier work
[4] = test system: HCV replicon cells (Huh-7); assay: 7-day cell growth dynamics, trypan-blue cell count
Protocol: FIG. 2 is a graphical depiction of the dynamics of cell growth and HCV RNA levels after exposure to control anti-HCV compounds. HCV replicon cells were seeded at approximately 10^4 cells per well in a 24-well plate. Over a 7-day period, cells were counted daily, and rRNA and HCV RNA were quantified by Q-RT-PCR. A: IFN-α-2a at 100 IU/ml; B: ribavirin at 100 μM. ●: cell proliferation in absence of compound; ◯: cell proliferation in presence of compound; ▾: HCV RNA levels in untreated cells; ∇: HCV RNA levels in the presence of compound. The curves shown are averages of 3 independent experiments.
Therefore, experiments were conducted to monitor HCV RNA levels and the cell growth dynamics over a 7-day period.
The dynamics of HCV replicon cells exposed to these inhibitors (at their EC90 value) was monitored over a 7-day period.

HCV replicon [5] = assay: HCV replicon assay: HCV RNA by Q-RT-PCR, 4 days exposure; assay type: cell-based, hepatitis C virus (HCV); settings: for Corrected HCV RNA log10 reduction: corrected for rRNA
Protocol: Antiviral screening assays can be done in the same media without G418 as follows: in order to keep cells in logarithmic growth phase, seed cells in a 96-well plate at low density, for example 1000 cells per well. Add the test compound immediate after seeding the cells and incubate for a period of 3 to 7 days at 37° C. in an incubator. Media is then removed, and the cells are prepared for total nucleic acid extraction (including replicon RNA and host RNA). Replicon RNA can then be amplified in a Q-RT-PCR protocol, and quantified accordingly. […] This value is called DeltaCt (ΔCt or DCt).
This value is called DeltaCt (ΔCt or dCt).

HCV replicon cells = assay: Prevention studies with natural ribo- or 2′-deoxy nucleosides; assay type: cell-based, human; settings: test compound at 96 h EC90 value; nucleosides at 50 μM
Huh-7 cells = assay: Cellular rRNA levels / cytotoxicity in HCV replicon cells; settings: IFN tested at 100 IU/ml; 4 days; listed as IFN-α-2a
From the text: In a typical setting, a compound might reduce both the host RNA polymerase activity and the replicon-encoded polymerase activity. Therefore, quantification of rRNA (or any other host RNA polymerase I product) or beta-actin mRNA (or any other host RNA polymerase II) and comparison with RNA levels of the no-drug control is a relative measurement of the effect of the test compound on host RNA polymerases.
With the availability of both the HCV ΔCt data and the rRNA ΔCt, a specificity parameter can be introduced. This parameter is obtained by subtracting both ΔCt values from each other.
IFN-α-2a and ribavirin were tested over a range of concentrations for their ability to reduce the HCV RNA levels in exponentially growing replicon cells after 4 days of exposure as described (Stuyver, L. et al. “A ribonucleoside analogue that blocks the replication of bovine viral diarrhea and hepatitis C viruses in culture” Antimicrob. Agents Chemother. 2003, 47, 244-254).
Gemcitabine was dissolved in DMSO and added to the culture media of a cellular model system of Huh7 cells harboring self-replicating HCV RNA, at final concentrations ranging from 0.1 to 50 dM. […]

Interferon-α-2a: recombinant interferon alfa-2a (Roferon-A, Hoffmann-Roche), positive control
effect on HCV RNA levels (HCV replicon RNA [1]; 7-day period, at 96 h EC90 value (IFN 100 IU/ml)): significant drop in HCV RNA levels
HCV RNA levels over the 7-day period (HCV replicon RNA [1]; 100 IU/ml, 7 days, control 1.79±0.4): −0.53±0.4
reduction of replicon RNA copy number per cell (HCV replicon RNA [2]): approximately 1.6 log10
corrected EC90 value (HCV replicon [3]): 4.5 IU/mL
effect on cell proliferation ([4]; 7-day period, at 96 h EC90 value (ribavirin 100 μM, IFN 100 IU/ml)): grew significantly slower
cell growth, log10 increase from day 0 ([4]; 100 IU/ml, day 7, untreated 1.31±0.08): 1.07±0.06 log10
Corrected HCV RNA EC90 (HCV replicon [5]; 96 h incubation): 4.5 IU/ml
log10 RNA reduction, HCV (HCV replicon [5]; IFN tested at 100 IU/ml, 4 days): 1.57 ± 0.26 log10
Corrected HCV RNA log10 reduction (HCV replicon [5]; IFN tested at 100 IU/ml): 1.36 ± 0.37 log10
Corrected HCV RNA log10 reduction (HCV replicon [5]; IFN tested at 100 IU/ml, listed as IFN-α-2a): 1.36±0.37 log10
prevention of antiviral and cytostatic effects by natural nucleosides (HCV replicon cells): could not be prevented by any of the natural nucleosides
log10 RNA reduction, rRNA (Huh-7 cells): minimal effect
